Patent US5380668A, “Compounds having the antigenicity of hCG” (University of Utah Research Foundation, priority 1993, dated 1995)

Test system: anti-hCG monoclonal antibody directed against a portion of the β-subunit of hCG
Experiment: EIA binding of BSA-conjugated peptide with anti-hCG monoclonal antibody
Conditions: peptide conjugated to BSA, absorbed on 96-well plate; antibody overnight at 4° C; alkaline phosphatase labeled protein A
Procedure: The binding of the synthesized peptide with an anti-hCG monoclonal antibody purified as per van Erp et al. J. Immunol. Methods, 140: 35-241 (1991) and directed against a portion of the β-subunit of hCG (provided by Organon-Teknika of Boxtel, NL) was determined by EIA. The peptide was conjugated through its thiol group to BSA using a heterobifunctional cross-linking reagent (succinimidyl 4-(N-maleimidomethyl)cyclohexane-1-carboxylate). The conjugates were first absorbed on the wells of a ninety-six well plate. Nonspecific binding sites on the surface was masked by unlabeled BSA. The anti-hCG antibody was allowed to react with both sample and control wells overnight at 4° C. Alkaline phosphatase labeled protein A was used for the color development.

**Q.** How did the “binding with anti-hCG antibody (EIA response)” value turn out when “hCG: glycoprotein secreted by the placenta and excreted in the urine; positive control in the EIA” was run?
**A.** comparable responses to the peptide antigen
